For the series, the system named is MCF-7 cells. In words: Cell viability, MTS Assay in MCF-7 Cells. The settings on record: staurosporine 10 uM, positive control.

For `CN[C@@H]1C[C@H]2O[C@@](C)([C@@H]1OC)n1c3ccccc3c3c4c(c5c6ccccc6n2c5c31)C(=O)NC4` [staurosporine, reference compound], the “Cell viability, % of the background corrected DMSO control value” is less than 5%.
